Measured affinities in a library of Ab-14 heavy chain variants

Target: peptide PDVDLGDISGINAS, taken from heptad repeat 2 (HR2) of SARS-CoV-2 spike.

Parent scFv Ab-14: VH joined to VL by a (GGGGS)3 linker. Changes lie in the heavy chain CDRs alone.
VH: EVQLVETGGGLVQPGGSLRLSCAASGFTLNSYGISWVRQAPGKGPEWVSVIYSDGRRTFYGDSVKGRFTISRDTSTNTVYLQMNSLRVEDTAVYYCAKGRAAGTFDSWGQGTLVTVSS
VL: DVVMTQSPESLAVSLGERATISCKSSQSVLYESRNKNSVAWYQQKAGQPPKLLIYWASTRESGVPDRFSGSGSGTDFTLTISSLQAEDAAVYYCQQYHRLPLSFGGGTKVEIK

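The parent was found by panning a naive human phage display library on the peptide. Variants in AAYL49 differ from the parent at up to three CDR positions; double and triple changes were sampled at random. AlphaSeq pools MATa yeast showing the antibodies with MATalpha yeast showing the peptide. Pairs that bind mate more often; barcode pairs of the diploids are counted by sequencing. Scores were corrected for input abundance and mapped to Kd with protein pairs of known affinity run in the same pool. Each pool was mated in three replicate cultures.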

Substitutions are numbered in sequence along the VH above, starting at 1 (not Kabat). Affinities are written as log10 Kd with Kd in nM; a lower number is a better binder. Replicates are averaged; those with no signal do not enter the mean. "not detected" means that the variant was in the library but no mating with the target was seen in any replicate; the authors take this as a sign of poor binding, and no number exists. As a blank, each scFv also met three strains without target: over library AAYL49, 15% of these pairings were detected, typically at 4.06 and seldom below 2.83.

mean log10 Kd (nM) | replicates with signal | changes
0.27 | 3/3 | T28H/R56K/T104S
4.26 | 1/3 | F27G/G33S/R57P
5.72 | 1/3 | Y32S/V50P/R56H
not detected | 0/3 | F27C/Y32H/A101M
2.73 | 3/3 | Y60E/R100A/A101M
not detected | 0/3 | F27Q/L29M/Y52L
not detected | 0/3 | V64I/G103Q/D106I
not detected | 0/3 | R57Q/T58F/G99P
not detected | 0/3 | D62V/G99F/T104C
not detected | 0/3 | Y52P/D54V/K65D
not detected | 0/3 | F27I/K65Y/T104G
5.66 | 1/3 | Y52H/T58E/G61M
3.84 | 2/3 | F27V/S53Y/R100L
not detected | 0/3 | Y32M/I34H/D54K
4.62 | 1/3 | F27P/R57V/V64W
not detected | 0/3 | G33K/Y52H/S107Y
5.17 | 2/3 | Y32D/T58M/D106L
not detected | 0/3 | V50W/R56L/F105W
2.73 | 3/3 | Y32T/G61I/S107W
4.55 | 3/3 | V50I/I51L/D106T
2.66 | 3/3 | F27Y/S31E/D106L
not detected | 0/3 | G33D/Y60M/G61H
not detected | 0/3 | T28F/A101F/G103P
3.39 | 1/3 | L29Q/G55N/D62R
not detected | 0/3 | S63M/G99M/G103I
not detected | 0/3 | V50C/F59L/S107H
2.62 | 3/3 | S31F/S35M/V64I
not detected | 0/3 | I51G/G99I/A102M
5.27 | 1/3 | F59P/G61W/G99D
not detected | 0/3 | S53E/G55P/Y60C
4.21 | 1/3 | G26A/A101H/F105N
5.10 | 1/3 | A101K/A102E/T104D
not detected | 0/3 | Y52S/D54I/A101R
2.11 | 1/3 | G61R/V64I/G99L
2.85 | 3/3 | T28L/T58D/R100H
1.92 | 3/3 | F105E/D106F
not detected | 0/3 | S35L/R57N/A101W
4.29 | 1/3 | G55T/T58G/K65L
not detected | 0/3 | F27Q/Y60D/S107C
not detected | 0/3 | F27E/S63N/F105P
not detected | 0/3 | R56M/G99R/F105G
not detected | 0/3 | V50R/D62F/V64S
not detected | 0/3 | Y32H/R56W/D106Q
2.35 | 3/3 | G26L/A102K
5.49 | 2/3 | L29S/G33K/T58F

Again, the first 7 entries without any signal:

changes	mean log10 Kd (nM)	replicates with signal
F27C/Y32H/A101M	not detected	0/3
F27Q/L29M/Y52L	not detected	0/3
V64I/G103Q/D106I	not detected	0/3
R57Q/T58F/G99P	not detected	0/3
D62V/G99F/T104C	not detected	0/3
Y52P/D54V/K65D	not detected	0/3
F27I/K65Y/T104G	not detected	0/3

Source: Engelhart et al. 2022 (doi:10.1038/s41597-022-01779-4), MIT Lincoln Laboratory and A-Alpha Bio; data file from the FLAb repository.